Drawing on patent publication US10787436B2, “Inhibitors of cyclin-dependent kinase 7 (CDK7)” (Dana-Farber Cancer Institute, Inc., priority 2012, dated 2020), this text covers IC50 for 2 compounds.

Protein sequences, listed by entry. Tags and fused reporters are not part of them. Residues count along the entry.
UniProt P50613, 2-346 limits assumed: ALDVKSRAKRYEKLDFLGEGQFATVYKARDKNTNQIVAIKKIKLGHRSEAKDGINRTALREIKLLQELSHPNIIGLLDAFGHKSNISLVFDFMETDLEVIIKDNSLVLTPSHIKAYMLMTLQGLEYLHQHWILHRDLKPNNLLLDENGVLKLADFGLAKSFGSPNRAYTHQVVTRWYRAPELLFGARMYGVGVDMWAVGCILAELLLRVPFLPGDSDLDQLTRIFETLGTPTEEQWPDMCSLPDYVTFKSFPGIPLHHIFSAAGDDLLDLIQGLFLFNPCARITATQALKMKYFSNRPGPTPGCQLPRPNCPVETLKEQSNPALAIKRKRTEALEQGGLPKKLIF
UniProt Q00535, whole entry: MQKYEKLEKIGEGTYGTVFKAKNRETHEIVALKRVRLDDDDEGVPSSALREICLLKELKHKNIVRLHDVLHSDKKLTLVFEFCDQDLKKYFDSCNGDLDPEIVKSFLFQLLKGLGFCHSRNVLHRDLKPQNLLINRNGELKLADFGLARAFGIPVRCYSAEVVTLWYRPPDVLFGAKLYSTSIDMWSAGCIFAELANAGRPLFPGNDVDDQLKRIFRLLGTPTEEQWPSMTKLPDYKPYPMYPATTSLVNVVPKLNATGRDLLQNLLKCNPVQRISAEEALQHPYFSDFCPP
UniProt Q16584, whole entry: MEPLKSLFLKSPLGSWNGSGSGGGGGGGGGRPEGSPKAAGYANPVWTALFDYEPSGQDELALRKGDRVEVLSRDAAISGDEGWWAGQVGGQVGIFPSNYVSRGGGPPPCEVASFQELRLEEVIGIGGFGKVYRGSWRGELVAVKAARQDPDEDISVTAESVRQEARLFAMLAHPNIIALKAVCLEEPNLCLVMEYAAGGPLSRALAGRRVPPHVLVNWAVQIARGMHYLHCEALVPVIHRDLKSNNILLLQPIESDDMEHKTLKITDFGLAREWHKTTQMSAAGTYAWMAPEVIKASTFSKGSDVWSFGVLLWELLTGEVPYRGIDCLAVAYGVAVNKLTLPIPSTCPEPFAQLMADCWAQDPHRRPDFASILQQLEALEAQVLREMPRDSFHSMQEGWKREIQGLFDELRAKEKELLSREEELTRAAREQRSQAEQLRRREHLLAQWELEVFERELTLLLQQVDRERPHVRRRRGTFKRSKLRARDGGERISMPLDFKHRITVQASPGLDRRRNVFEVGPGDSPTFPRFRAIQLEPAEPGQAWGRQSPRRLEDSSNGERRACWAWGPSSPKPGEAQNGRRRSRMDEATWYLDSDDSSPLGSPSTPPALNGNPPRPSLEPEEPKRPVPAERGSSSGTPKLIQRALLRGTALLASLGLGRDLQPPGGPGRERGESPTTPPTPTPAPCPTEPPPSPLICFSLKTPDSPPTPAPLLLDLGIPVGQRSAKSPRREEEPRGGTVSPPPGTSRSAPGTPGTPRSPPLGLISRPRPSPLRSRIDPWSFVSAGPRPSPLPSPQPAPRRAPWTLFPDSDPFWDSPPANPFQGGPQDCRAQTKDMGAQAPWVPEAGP
UniProt P50750, whole entry: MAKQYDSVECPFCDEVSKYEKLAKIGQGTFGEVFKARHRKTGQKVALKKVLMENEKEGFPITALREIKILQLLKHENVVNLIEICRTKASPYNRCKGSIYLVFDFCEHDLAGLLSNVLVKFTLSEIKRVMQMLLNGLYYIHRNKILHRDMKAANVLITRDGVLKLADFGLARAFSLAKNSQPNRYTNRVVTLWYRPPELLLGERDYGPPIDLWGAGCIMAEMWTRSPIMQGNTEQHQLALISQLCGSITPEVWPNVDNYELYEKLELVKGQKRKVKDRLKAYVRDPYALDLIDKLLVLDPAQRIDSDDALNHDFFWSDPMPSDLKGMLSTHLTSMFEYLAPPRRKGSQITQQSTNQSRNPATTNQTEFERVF
UniProt O60563, whole entry partner: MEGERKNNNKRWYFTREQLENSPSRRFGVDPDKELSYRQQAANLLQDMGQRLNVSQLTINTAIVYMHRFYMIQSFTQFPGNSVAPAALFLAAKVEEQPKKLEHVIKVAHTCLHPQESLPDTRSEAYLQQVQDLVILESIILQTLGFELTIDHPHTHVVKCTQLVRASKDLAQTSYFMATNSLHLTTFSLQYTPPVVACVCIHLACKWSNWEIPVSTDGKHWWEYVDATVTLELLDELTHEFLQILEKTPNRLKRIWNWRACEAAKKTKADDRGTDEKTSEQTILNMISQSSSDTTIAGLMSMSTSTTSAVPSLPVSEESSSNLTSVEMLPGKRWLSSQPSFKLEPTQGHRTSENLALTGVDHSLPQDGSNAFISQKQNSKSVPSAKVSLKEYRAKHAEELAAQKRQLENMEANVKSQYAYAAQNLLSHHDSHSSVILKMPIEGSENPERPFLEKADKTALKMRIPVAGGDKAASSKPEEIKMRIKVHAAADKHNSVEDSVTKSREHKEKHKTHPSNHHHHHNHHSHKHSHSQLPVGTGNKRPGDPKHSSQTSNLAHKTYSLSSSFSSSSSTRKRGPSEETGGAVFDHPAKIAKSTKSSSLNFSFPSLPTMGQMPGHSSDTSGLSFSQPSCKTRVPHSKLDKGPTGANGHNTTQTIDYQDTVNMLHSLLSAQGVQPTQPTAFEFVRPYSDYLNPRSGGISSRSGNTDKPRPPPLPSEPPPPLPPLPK
UniProt Q15078, 99-307 partner limits assumed: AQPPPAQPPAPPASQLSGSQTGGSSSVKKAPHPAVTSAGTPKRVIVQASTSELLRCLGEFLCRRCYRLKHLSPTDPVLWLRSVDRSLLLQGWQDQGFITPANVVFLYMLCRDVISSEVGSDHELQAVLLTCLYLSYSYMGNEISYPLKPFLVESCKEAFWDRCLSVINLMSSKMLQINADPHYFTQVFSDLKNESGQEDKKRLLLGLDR

Structures are written as SMILES.

One experiment addresses CDK7 (Homo sapiens (Human), UniProt P50613). The experiment in a line: Life Technologies Adapta kinase assay, CDK7 (cyclin H and MNAT1). The experiment is classed as biochemical. Conditions: read-out: Calculated IC50, CDK7; 10 μM down to 0.514 nM, 3-fold serial dilutions.
The target in a further experiment is CDK5/p25 (Homo sapiens (Human), UniProt Q00535). The experiment in a line: Life Technologies Z'-Lyte kinase assay, CDK5/p25. Format: biochemical. The note with it: read-out: Calculated IC50, CDK5/p25.
The target in another experiment is MLK3 (Homo sapiens (Human), UniProt Q16584). The experiment in a line: Life Technologies LanthaScreen Eu kinase assay, MLK3. The experiment is classed as binding. The note with it: read-out: Calculated IC50, MLK3.
The target of a further experiment is CDK2/cyclin A (Homo sapiens (Human), UniProt P24941). As to the kind of experiment: Life Technologies Z'-Lyte kinase assay, CDK2. Format: biochemical. Conditions: read-out: Calculated IC50, CDK2/cyclin A.
The target of a further experiment is CDK9/cyclin T1 (Homo sapiens (Human), UniProt P50750). The experiment in a line: Life Technologies Adapta kinase assay, CDK9/cyclin T1. The note with it: read-out: Calculated IC50, CDK9/cyclin T1. Format: biochemical.
The test system of another experiment is 143B. As to the kind of experiment: Proliferation assay, CellTiter-Glo, 72 hour. The experiment is classed as cell-based. Conditions: read-out: Inhibition of proliferation, 143B, osteosarcoma cell line.
The next experiment has as its system A673. As to the kind of experiment: Proliferation assay, CellTiter-Glo, 72 hour. Format: cell-based. Conditions: read-out: Inhibition of proliferation, A673, Ewing's sarcoma cell line.
The next experiment concerns HL60. The experiment in a line: Proliferation assay, CellTiter-Glo, 72 hour. The experiment is classed as cell-based. The note with it: read-out: Inhibition of proliferation, HL60, blood cancer cell line.
In the next experiment the test system is Hs822T. As to the kind of experiment: Proliferation assay, CellTiter-Glo, 72 hour. Format: cell-based. The note with it: read-out: Inhibition of proliferation, Hs822T, Ewing's sarcoma cell line.
The test system of a further experiment is Hs863T. As to the kind of experiment: Proliferation assay, CellTiter-Glo, 72 hour. Format: cell-based. Conditions: read-out: Inhibition of proliferation, Hs863T, Ewing's sarcoma cell line.
Another experiment deals with MCF10A. As to the kind of experiment: Proliferation assay, CellTiter-Glo, 72 hour. Format: cell-based. Conditions: read-out: Inhibition of proliferation, MCF10A, non-tumorigenic breast epithelial cell line.
In a further experiment the test system is MCF7. The experiment in a line: Proliferation assay, CellTiter-Glo, 72 hour. Format: cell-based. The note with it: read-out: Inhibition of proliferation, MCF7, breast cancer cell line.
The next experiment deals with MDA-MB231. The experiment in a line: Proliferation assay, CellTiter-Glo, 72 hour. Conditions: read-out: Inhibition of proliferation, MDA-MB231, breast cancer cell line. Format: cell-based.
The test system of another experiment is MNNG-HOS Cl#5. The experiment in a line: Proliferation assay, CellTiter-Glo, 72 hour. Format: cell-based. Conditions: read-out: Inhibition of proliferation, MNNG-HOS Cl#5, osteosarcoma cell line.
For another experiment, the system named is MV4-11. As to the kind of experiment: Proliferation assay, CellTiter-Glo, 72 hour. Conditions: read-out: Inhibition of proliferation, MV4-11, blood cancer cell line. The experiment is classed as cell-based.
For the next experiment, the system named is RD-ES. The experiment in a line: Proliferation assay, CellTiter-Glo, 72 hour. Conditions: read-out: Inhibition of proliferation, RD-ES, Ewing's sarcoma cell line. Format: cell-based.
The test system of the next experiment is RS4-11. The experiment in a line: Proliferation assay, CellTiter-Glo, 72 hour. The experiment is classed as cell-based. Conditions: read-out: Inhibition of proliferation, RS4-11, blood cancer cell line.
A further experiment has as its system SAOS. The experiment in a line: Proliferation assay, CellTiter-Glo, 72 hour. Conditions: read-out: Inhibition of proliferation, SAOS, osteosarcoma cell line. The experiment is classed as cell-based.
The next experiment concerns SK-ES. The experiment in a line: Proliferation assay, CellTiter-Glo, 72 hour. The experiment is classed as cell-based. Conditions: read-out: Inhibition of proliferation, SK-ES, Ewing's sarcoma cell line.
The test system of another experiment is SKBR3. The experiment in a line: Proliferation assay, CellTiter-Glo, 72 hour. Format: cell-based. The note with it: read-out: Inhibition of proliferation, SKBR3, breast cancer cell line.
The test system of a further experiment is T47D. The experiment in a line: Proliferation assay, CellTiter-Glo, 72 hour. The experiment is classed as cell-based. The note with it: read-out: Inhibition of proliferation, T47D, breast cancer cell line.
Another experiment relates to THP-1. The experiment in a line: Proliferation assay, CellTiter-Glo, 72 hour. Format: cell-based. Conditions: read-out: Inhibition of proliferation, THP-1, blood cancer cell line.
The next experiment relates to hTERT-HME1. As to the kind of experiment: Proliferation assay, CellTiter-Glo, 72 hour. The experiment is classed as cell-based. The note with it: read-out: Inhibition of proliferation, hTERT-HME1, immortalized normal mammary epithelial cell line.

In the case of `O=C(/C=C/CO)Nc1ccc(S(=O)(=O)Nc2cccc(Nc3ncc(Cl)c(-c4c[nH]c5ccccc45)n3)c2)cc1`, the IC50 on CDK7 was less than 100 nM; on CDK5/p25, 100 to 1000 nM; on MLK3, 100 to 1000 nM.
As for `Cc1ccc(Nc2ncc(Cl)c(-c3c[nH]c4ccccc34)n2)cc1NC(=O)c1ccc(NC(=O)/C=C/CN(C)C)cc1`, the IC50 is more than 1000 nM at CDK2/cyclin A; more than 1000 nM at CDK5/p25; 100 to 1000 nM at CDK9/cyclin T1; 100 to 1000 nM on MLK3; 500 to 5000 nM in the experiment on 143B; less than 500 nM in the experiment with A673. In addition, the IC50 is less than 500 nM in the experiment with HL60; less than 500 nM in the experiment with Hs822T; 500 to 5000 nM in the experiment on Hs863T; less than 500 nM in the experiment with MCF10A; less than 500 nM in the experiment on MCF7; less than 500 nM with MDA-MB231. Further, the IC50 in the experiment with MNNG-HOS Cl#5 is 500 to 5000 nM; with MV4-11 it was less than 500 nM; with RD-ES, less than 500 nM; with RS4-11, less than 500 nM; in the experiment on SAOS, less than 500 nM; in the experiment with SK-ES, less than 500 nM. Further, the IC50 in the experiment with SKBR3 is 500 to 5000 nM; with T47D, 500 to 5000 nM; in the experiment with THP-1, less than 500 nM; in the experiment with hTERT-HME1, less than 500 nM.
